Screening results: PubChem BioAssay, National Center for Advancing Translational Sciences (NCATS)
Only some compounds are listed: those with a hit (about 16% of all), similar ones and a draw of the others.
TDP1 cell noCPT = qHTS for Inhibitors of human tyrosyl-DNA phosphodiesterase 1 (TDP1): qHTS in cells in absence of CPT; DT40 Tdp1-/- hTDP1 cells, no CPT, ATP luminescence, 48 h; AID 686978, 2013; hit rate 15% among 420,000; Potency, µM (doses to about 46.2 µM), hits mostly inhibitors; further: nearly all actives have a fitted effect of over 55% in size
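Readout: luminescence from CellTiter-Glo after 30 min in the dark at RT. Cells: DT40 Tdp1-/- with stable hTDP1, 400/well. Exposure: compounds alone, ≥48 hr, 37 °C.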
uPA surface inh = cell surface uPA generation inhibition; cell surface uPA generation assay, qHTS; Potency, µM (titrated, usually from 38.3 µM), most hits filed as inhibitors; hit rate 0.31% among 330,000; AID 540303; active means well fitted inhibition curve with a large enough effect; inconclusive means small, poorly fitted or top-dose-only effect; inactive means no such curve, though single readings can be large or run the other way; tested in mouse RAW 264.7 cells; further: nearly all actives have a fitted effect of over 55% in size
TDP1 inh = TDP1 (human) enzyme inhibition; Q9NUW8; recombinant TDP1, AlphaScreen DNA substrate cleavage; Potency, µM (titrated, usually from 130 µM), usual class: inhibitors; hit rate 0.28% among 350,000; further: nearly all actives have a fitted effect of over 40% in size
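Signal: AlphaScreen proximity between streptavidin donor and anti-FITC acceptor beads on intact substrate. Reaction: Tdp1 1 nM, substrate 15 nM final, 5 min RT after 15 min compound preincubation.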
DT40 TDP1 CPT = DT40-hTDP1 cell growth loss with CPT; chicken DT40 Tdp1-/-;hTDP1 cells + 20 nM CPT, ATP luminescence, 48 h; Potency, µM (highest dose often 46.2 µM), most hits filed as inhibitors; hit rate 12% among 420,000; further: nearly all actives have a fitted effect of over 55% in size
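Chicken DT40 Tdp1-/- cells stably complemented with human TDP1 were seeded at 400 cells/well in medium containing 20 nM camptothecin, exposed to pin-transferred compounds, and grown at 37 °C for at least 48 hr. Viability was read as ATP luminescence.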
miR-21 reporter = raises the signal of a miR-21 reporter | HeLa miR-21 FLuc reporter, luciferase, 48 h | Potency, µM (highest dose often 38.3 µM) | 340,000 tested, under 10 active | AID 2288; active = well fitted rising curve with a large enough effect; inconclusive = small, poorly fitted or top-dose-only effect; inactive = no such curve, though single readings can be large or run the other way;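 also: miR-21 action dims this reporter so a rising signal means less miR-21 action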
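Luminescence from a firefly luciferase reporter carrying a miR-21 binding site downstream, stably expressed under a CMV promoter in HeLa cells that make miR-21 endogenously, reports miRNA modulation after 48 h compound exposure up to approximately 40uM final.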
Large screens that a line does not name were inactive. Unless noted, the call rests on the fitted dose curve; in most records, active means well fitted curve in the direction sought with a large enough effect; inconclusive means small, poorly fitted or top-dose-only effect, or another doubt; inactive means no such curve, though single readings can be large; an effect the other way counts as inactive or inconclusive.

CC1CCCN(S(=O)(=O)c2ccc3[nH]c4c(c3c2)CCCC4)C1 (centres undefined)	TDP1 cell noCPT inconclusive, DT40 TDP1 CPT 20.6µM
Cc1ccc(C)c(N2CCN(S(=O)(=O)c3ccc4[nH]c5c(c4c3)CCCCC5)CC2)c1	none (no result: TDP1 cell noCPT, uPA surface inh, DT40 TDP1 CPT)
CC(=O)c1ccc(N2CCN(S(=O)(=O)c3ccc4[nH]c5c(c4c3)CCCC5)CC2)cc1	TDP1 cell noCPT 25.9µM, DT40 TDP1 CPT inconclusive (no result: uPA surface inh)
Cc1ccc(N2CCN(S(=O)(=O)c3ccc4[nH]c5c(c4c3)CCCCC5)CC2)c(C)c1	none (no result: TDP1 cell noCPT, uPA surface inh, DT40 TDP1 CPT)
CCCOc1cccc(C2C(C(=O)c3ccco3)=C(O)C(=O)N2CCCn2ccnc2)c1 (centres undefined)	none
CCOC(=O)c1ccccc1NC(=O)c1c(F)c(F)c(F)c(F)c1F	TDP1 inh inconclusive, DT40 TDP1 CPT inconclusive
COc1cc(C2c3cc4c(cc3OC(C)(N3CCCC3)C2C)OCO4)cc(OC)c1OC (centres undefined)	TDP1 cell noCPT 1.16µM, DT40 TDP1 CPT 1.16µM (no result: TDP1 inh, miR-21 reporter)
COc1ccc(S(=O)(=O)N2CCOCC2)cc1NC(=O)c1ccc2c(c1)OCO2	none (no result: miR-21 reporter)
COc1cc(CCC(=O)NCc2ccc3c(c2)OCO3)cc(OC)c1OC	none (no result: TDP1 inh)
COc1cc(C2c3cc4c(cc3OC(N3CCCC3)C2C)OCO4)cc(OC)c1O (centres undefined)	TDP1 cell noCPT 16.4µM, DT40 TDP1 CPT inconclusive (no result: TDP1 inh, miR-21 reporter)
COc1cc(C2c3cc4c(cc3OC(N3CCOCC3)C2C)OCO4)cc(OC)c1OC(C)=O (centres undefined)	TDP1 cell noCPT 25.9µM, DT40 TDP1 CPT inconclusive (no result: TDP1 inh, miR-21 reporter)
O=[N+]([O-])c1cc(/C=N/n2c(-c3cccnc3)n[nH]c2=S)ccc1Cl	TDP1 cell noCPT inconclusive, DT40 TDP1 CPT inconclusive
O=C(NCC(=O)N1CCCCCCC1)c1ccco1	none (no result: miR-21 reporter)
Cc1nc2scc(-c3ccc(Cl)cc3)c2c(=O)o1	none
O=C(NCc1ccccc1Cl)c1cnc2ccccc2n1	TDP1 cell noCPT inconclusive, DT40 TDP1 CPT inconclusive
CCOC(=O)CSc1nc(-c2ccccc2)ns1	TDP1 cell noCPT inconclusive, DT40 TDP1 CPT inconclusive
O=C(CSc1nc(=O)[nH]c2c1CCC2)Nc1cc(C(F)(F)F)ccc1Cl	TDP1 cell noCPT inconclusive, DT40 TDP1 CPT inconclusive (no result: uPA surface inh)
O=C(CSc1nc(=O)[nH]c2c1CCCC2)Nc1cc(C(F)(F)F)cc(C(F)(F)F)c1	TDP1 cell noCPT 23.1µM, DT40 TDP1 CPT 18.4µM (no result: TDP1 inh, miR-21 reporter)
C/C(=N\O)C(C)(C)Nc1ccc(Br)cc1	none (no result: TDP1 inh)
Cc1ccc(/C=N/NS(=O)(=O)c2ccc([N+](=O)[O-])cc2)o1	none
Cc1ccc(S(=O)(=O)N/N=C\c2ccc([N+](=O)[O-])o2)cc1	TDP1 cell noCPT 16.4µM, uPA surface inh inconclusive, DT40 TDP1 CPT 14.6µM
O=[N+]([O-])c1ccc(/C=N/NS(=O)(=O)c2ccc(Cl)cc2)o1	TDP1 cell noCPT 16.4µM, DT40 TDP1 CPT 9.2µM
Cc1ccc(S(=O)(=O)N/N=C\c2ccc([N+](=O)[O-])o2)cc1C	TDP1 cell noCPT inconclusive, DT40 TDP1 CPT 18.4µM
Cc1nc(SCC(=O)NC2CCCC2)[nH]c(=O)c1Cc1ccccc1	none
O=C1c2ccccc2S(=O)(=O)N1CC1CC(c2ccccc2Cl)=NO1 (centres undefined)	none
N#C/C(=C/c1cc(Br)cs1)C(=O)NCC1CCCO1 (centres undefined)	TDP1 cell noCPT inconclusive
Cc1cc2c(cc1C)/C(=N/NC(=O)c1ccccn1)CCC2	TDP1 cell noCPT 23.1µM, DT40 TDP1 CPT inconclusive
COc1ccc(Br)cc1CNC(=O)CN1C(=O)c2cccnc2Oc2ccc(C)cc21	TDP1 cell noCPT 11.6µM, DT40 TDP1 CPT inconclusive (no result: uPA surface inh)
CCCOc1ccc(CNC(=O)CN2C(=O)c3cccnc3Oc3ccc(C)cc32)cc1	TDP1 cell noCPT inconclusive, DT40 TDP1 CPT 23.1µM (no result: uPA surface inh)
CC(C)Oc1ccc(CNC(=O)CN2C(=O)c3cccnc3Oc3ccc(Cl)cc32)cc1	TDP1 cell noCPT 18.4µM, DT40 TDP1 CPT 16.4µM (no result: uPA surface inh)
Cc1ccc2c(c1)N(CC(=O)NCc1ccccc1Br)C(=O)c1cccnc1O2	DT40 TDP1 CPT inconclusive (no result: uPA surface inh)
O=C(CNc1cccc([N+](=O)[O-])c1)NCCCc1ccccc1	TDP1 cell noCPT inconclusive
COc1ccccc1Nc1nnc(SCC(=O)c2c(N)n(C3CC3)c(=O)[nH]c2=O)s1	none (no result: miR-21 reporter)
COc1cc2c(cc1OC)C(=O)C(Br)CC2 (centres undefined)	TDP1 cell noCPT 4.61µM, DT40 TDP1 CPT 3.66µM (no result: uPA surface inh, TDP1 inh, miR-21 reporter)
